Target: T1, Biotin-labeled fluorescent peptide CPRPFSVPP(S*)PDK-(5-FAM) (not fully specified)
T1 chain: CPRPFSVPPSPDK

B1: GSK3β, rHuman (protein)
chain: MSGRPRTTSFAESCKPVQQPSAFGSMKVSRDKDGSKVTTVVATPGQGPDRPQEVSYTDTKVIGNGSFGVVYQAKLCDSGELVAIKKVLQDKRFKNRELQIMRKLDHCNIVRLRYFFYSSGEKKDEVYLNLVLDYVPETVYRVARHYSRAKQTLPVIYVKLYMYQLFRSLAYIHSFGICHRDIKPQNLLLDPDTAVLKLCDFGSAKQLVRGEPNVSYICSRYYRAPELIFGATDYTSSIDVWSAGCVLAELLLGQPIFPGDSGVDQLVEIIKVLGTPTREQIREMNPNYTEFKFPQIKAHPWTKVFRPRTPPEAIALCSRLLEYTPTARLTPLEACAHSFFDELRDPNVKLPNGRDTPALFNFTTQELSSNPPLATILIPPHARIQAAASTPTNATAASDANTGDRGQTNNAASASASNST
  amount of enzyme/well needed for roughly 50% maximal signal at 10 µM ATP/well (TR-FRET enzyme titration): 0.209 µg/ml for GSK3β
